Literature values in patent US20130090323A1, “HETEROCYCLIC COMPOUNDS AND THEIR USES” (Amgen Inc., priority 2010, published 2013).

Sequences of proteins named here, by UniProt entry; tags and fusion partners are left off. A change or cut given only in a name is not applied to a line headed by its entry.
UniProt P42338: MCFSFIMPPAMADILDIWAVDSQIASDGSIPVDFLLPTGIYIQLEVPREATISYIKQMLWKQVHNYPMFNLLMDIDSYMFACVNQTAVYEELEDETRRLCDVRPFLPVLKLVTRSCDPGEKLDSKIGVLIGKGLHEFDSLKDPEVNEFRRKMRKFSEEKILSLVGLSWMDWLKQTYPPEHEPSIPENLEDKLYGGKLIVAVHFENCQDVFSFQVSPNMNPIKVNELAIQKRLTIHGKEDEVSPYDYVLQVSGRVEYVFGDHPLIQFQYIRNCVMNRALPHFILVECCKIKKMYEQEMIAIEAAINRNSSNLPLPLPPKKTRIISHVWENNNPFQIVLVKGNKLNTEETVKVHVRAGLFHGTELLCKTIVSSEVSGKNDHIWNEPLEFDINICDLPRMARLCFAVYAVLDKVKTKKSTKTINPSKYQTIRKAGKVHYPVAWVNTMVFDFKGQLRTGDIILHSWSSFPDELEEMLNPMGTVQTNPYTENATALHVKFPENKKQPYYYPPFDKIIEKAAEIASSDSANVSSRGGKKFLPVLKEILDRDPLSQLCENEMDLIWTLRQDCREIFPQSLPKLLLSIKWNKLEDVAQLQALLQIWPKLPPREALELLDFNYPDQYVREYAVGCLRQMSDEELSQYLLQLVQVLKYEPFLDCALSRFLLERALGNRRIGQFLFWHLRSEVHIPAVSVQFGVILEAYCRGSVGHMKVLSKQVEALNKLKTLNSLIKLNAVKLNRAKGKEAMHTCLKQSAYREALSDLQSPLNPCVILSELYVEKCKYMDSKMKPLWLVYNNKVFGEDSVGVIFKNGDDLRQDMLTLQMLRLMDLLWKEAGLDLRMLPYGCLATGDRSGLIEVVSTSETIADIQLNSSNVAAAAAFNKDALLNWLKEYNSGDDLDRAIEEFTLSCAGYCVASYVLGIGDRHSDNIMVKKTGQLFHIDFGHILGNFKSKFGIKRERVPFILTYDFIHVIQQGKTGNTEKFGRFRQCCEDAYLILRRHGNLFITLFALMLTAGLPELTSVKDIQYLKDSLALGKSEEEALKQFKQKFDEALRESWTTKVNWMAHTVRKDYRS

Molecular target: p110β (Homo sapiens, UniProt P42338)
Details: read-out: potency on beta

In the case of `Cc1cc(C(C)Nc2ccccc2)c2nc(N3CCOCC3)cc(=O)n2c1` (stereo not shown) [TGX-221], the IC50 is listed as 7 nM.
